According to PubChem BioAssay (EPA / NIEHS):
Where “and” joins values, the source holds several entries; their conditions need not be identical. Equal values may be shown once. This is a selection; strong and weak results do not stand in their true shares. Inconclusive results are not listed. The source holds several records for some structures; these can differ, active in one and inactive in another. Calls of active or inactive are those of the source. How the source made its calls, unless noted: active means hit-call score of the fitted dose curve at least 0.9, where 1 is the maximum; inactive means score below 0.9.

Columns and labels:
[1] = read-out: Secreted IgG (sIgG), gene 3500; assay: BSK_BT_sIgG: BioMAP Diversity Plus: BT Assay for Secreted IgG (sIgG) Biomarker Activity (AID 2284226); conditions: primary human B cells with PBMC
Outline: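 Human B cell/PBMC co-culture; compound exposure 24 h; sIgG by ELISA; gain-of-signal fit vs DMSO baseline.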

[2] = BSK_BT_Bcell_Proliferation: Viability Assessment in the BioMAP Diversity Plus: BT Assay for B cell Proliferation (AID 2284227); conditions: primary human B cells with PBMC
Outline: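 Human B cell/PBMC co-culture; test chemical added; 72 h; TCA fix (10%), 0.1% SRB stain, A560 for total protein as a proliferation read-out; positive-direction fit vs DMSO baseline.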

[3] = read-out: Interleukin 6 (IL6), IL6 (gene 3569); assay: BSK_BT_xIL6: BioMAP Diversity Plus: BT Assay for Interleukin 6 (IL6) Biomarker Activity (AID 2284228); conditions: primary human B cells with PBMC
Outline: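 IL-6 secretion measured (Luminex xMAP) in human primary B cell + PBMC co-culture at 24 h of chemical exposure; DMSO served as negative control and activity baseline, with curves fitted for increase.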

[4] = read-out: Interleukin 17A (IL17A), IL17A (gene 3605); assay: BSK_BT_xIL17A: BioMAP Diversity Plus: BT Assay for Interleukin 17A (IL17A) Biomarker Activity (AID 2284229); conditions: primary human B cells with PBMC
Outline: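 Human primary B cells plus PBMC, treated 24 h with chemicals; supernatant IL-17A quantified on Luminex xMAP beads. Gain of signal over DMSO control scored as activity.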

[5] = read-out: Tumor necrosis factor (Homo sapiens) (UniProt P01375); assay: BSK_BT_xTNFa: BioMAP Diversity Plus: BT Assay for Tumor necrosis factor alpha (TNF-alpha) Biomarker Activity (AID 2284230); conditions: primary human B cells with PBMC
Outline: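 Read-out: Luminex xMAP quantitation of secreted TNF-alpha from a B cell/PBMC co-culture 24 h after compound addition. Signal analysed relative to DMSO vehicle, positive fitting direction.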

[6] = read-out: Vascular cell adhesion molecule 1 (VCAM1), VCAM1 (gene 7412); assay: BSK_MyoF_VCAM1: BioMAP Diversity Plus: MyoF Assay for Vascular cell adhesion molecule 1 (VCAM1) Biomarker Activity (AID 2284231); conditions: primary human lung fibroblasts
Outline: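 VCAM-1 levels, lung fibroblasts, ELISA, 24 h exposure, increase scored relative to DMSO.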

[7] = read-out: Collagen I, COL1A1 (gene 1277); assay: BSK_MyoF_CollagenI: BioMAP Diversity Plus: MyoF Assay for Collagen I Biomarker Activity (AID 2284238); conditions: primary human lung fibroblasts
Outline: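 Measured by ELISA: Collagen I from human lung fibroblasts 24 h after compound addition, analysed for signal gain with DMSO as baseline; overt toxicity read from SRB staining of parallel cultures at the same time.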

[8] = read-out: Collagen III, COL3A1 (gene 1281); assay: BSK_MyoF_CollagenIII: BioMAP Diversity Plus: MyoF Assay for Collagen III Biomarker Activity (AID 2284239); conditions: primary human lung fibroblasts
Outline: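 Multiplexed cell assay in lung fibroblasts, harvested at 24 h post-dose. Collagen III detected by ELISA, with positive-direction fitting relative to DMSO vehicle.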

[9] = read-out: Interleukin 17F (IL17F), IL17F (gene 112744); assay: BSK_BT_xIL17F: BioMAP Diversity Plus: BT Assay for Interleukin 17F (IL17F) Biomarker Activity (AID 2284243); conditions: primary human B cells with PBMC
Outline: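 Luminex readout of IL-17F secretion, 24 h; cells: human B cells with PBMC; positive-direction analysis, DMSO control.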

[10] = read-out: Actin alpha 1 (ACTA1), ACTA1 (gene 58); assay: BSK_MyoF_ACTA1: BioMAP Diversity Plus: MyoF Assay for Actin alpha 1 (ACTA1) Biomarker Activity (AID 2284244); conditions: primary human lung fibroblasts
Outline: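 ELISA read-out of a-SMA in primary human lung fibroblast cultures, 24 h post-dosing. Activity scored in the positive direction versus DMSO baseline.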

[11] = read-out: Interleukin 2 (IL2), IL2 (gene 3558); assay: BSK_BT_xIL2: BioMAP Diversity Plus: BT Assay for Interleukin 2 (IL2) Biomarker Activity (AID 2284245); conditions: primary human B cells with PBMC
Outline: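 Readout: supernatant IL-2 via Luminex xMAP after 24 h chemical dosing of a B cell/PBMC primary human co-culture. DMSO serves as negative control and baseline; increases in signal were fitted.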

[12] = read-out: Basic fibroblast growth factor (bFGF), FGF2 (gene 2247); assay: BSK_MyoF_bFGF: BioMAP Diversity Plus: MyoF Assay for Basic fibroblast growth factor (bFGF) Biomarker Activity (AID 2284246); conditions: primary human lung fibroblasts
Outline: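 Primary human lung fibroblast culture, 24 h compound exposure; ELISA read-out of bFGF. Positive-direction fit vs DMSO baseline. Cytotoxicity: SRB stain (0.1% SRB, 10% TCA fixation, 560 nm) in parallel wells.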

[13] = read-out: Collagen IV, COL4A1 (gene 1282); assay: BSK_MyoF_CollagenIV: BioMAP Diversity Plus: MyoF Assay for Collagen IV Biomarker Activity (AID 2284247); conditions: primary human lung fibroblasts
Outline: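 ELISA read-out of Collagen IV in lung fibroblast cultures, 24 h post-dosing; gain of signal relative to DMSO vehicle baseline defines activity.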

[14] = read-out: Plasminogen activator inhibitor-1 (PAI1), SERPINE1 (gene 5054); assay: BSK_MyoF_PAI1: BioMAP Diversity Plus: MyoF Assay for Plasminogen activator inhibitor-1 (PAI1) Biomarker Activity (AID 2284256); conditions: primary human lung fibroblasts;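 further: PAI-1 protein level measured by ELISA in fibroblast cultures; PAI-1 read 24 h after compound addition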
Outline: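 In this multiplexed primary-cell system, fibroblasts from human lung received compound for 24 h before ELISA detection of PAI-1; overt toxicity was checked by SRB (0.1%, TCA-fixed, 560 nm) in parallel wells.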

[15] = UKN2_HCS_IMR90_cell_viability: Viability Assessment in the University of Konstanz (UKN) Leist Lab Neural Crest Cell Migration Assay in human induced IMR90 Pluripotent Stem Cells (UKN2) (AID 2284233);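 further: cells exposed to compound for 24 h after a 24 h migration phase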
Outline: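 Viability read as calcein-AM fluorescence by high-content imaging, Hoechst co-stain, 30 min. Human iPSC (IMR90) neural crest cells had migrated 24 h into stopper-defined gaps before 24 h chemical exposure. Fitted bidirectionally relative to DMSO.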

[16] = CCTE_Mundy_HCI_Cortical_NOG_NeuronCount: CCTE's Neurite Outgrowth Assay in rat cortical cells for Neuron Count, Mundy Lab (AID 2284236; active means hit-call score of the fitted dose curve at least 0.9, where 1 is the maximum;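 further: neurons counted by imaging betaIII-tubulin and Hoechst stained cortical cells; cells exposed to compound for about 48 hours before fixation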)
Outline: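 Read-out: neuron number by high-content imaging of betaIII-tubulin (Alexa Fluor-488) and Hoechst-labelled rat primary cortical cells.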

[17] = CCTE_Mundy_HCI_Cortical_NOG_BPCount: CCTE's Neurite Outgrowth Assay in rat cortical cells for Branch Point Count, Mundy Lab (AID 2284237);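 on AC50: branch points counted about two days after chemical exposure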
Outline: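 Measured 50.33 h after dosing, this morphology endpoint uses rat primary cortical cultures labelled for betaIII-tubulin. Branch points are quantified by high-content imaging, with DMSO as negative control and baseline.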

[18] = CCTE_Mundy_HCI_hNP1_Casp3_7: CCTE's Caspase-Glo 3/7 Assay in human neuroprogenitor cells for Apoptosis, Mundy Lab (AID 2284240)
Outline: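 Luminescent caspase-3/7 readout, 26.5 h post-dose, in human neural progenitor cells from WA09 embryonic stem cells. Cells grew 40–44 h at 37 °C, 5% CO2 before chemical addition. Activity analysed as signal increase over DMSO baseline.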

[19] = CCTE_Mundy_HCI_hNP1_CellTiter: CCTE's Cell Titer-Glo 2 Assay in human neuroprogenitor cells for Viability, Mundy Lab (AID 2284241; active means hit-call score of the fitted dose curve at least 0.9, where 1 is the maximum;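 on AC50: a hit is a drop in ATP luminescence versus DMSO meaning reduced viability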)
Outline: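 Viability read as luminescent ATP content (CellTiter-Glo, 30 min room temperature) twenty-four hours after dosing, relative to DMSO. Cells: WA09-derived hNP1 neuroprogenitors on poly-L-ornithine/laminin, plated 40 to 44 hours before chemical.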

[20] = CCTE_Mundy_HCI_Cortical_Synap_Neur_Matur_NeuronCount: CCTE's Synaptogenesis and Neurite Maturation Assay in rat cortical cells for Neuron Count, Mundy Lab (AID 2284242; active means hit-call score of the fitted dose curve at least 0.9, where 1 is the maximum;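 further: neuron number from Hoechst nuclei and MAP2 staining by high-content imaging; hits reduce neuron count versus DMSO baseline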)
Outline: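 Rat cortical cultures; AraC DIV 5; chemical dosing + media change DIV 7 to DIV 12 (288.33 h readout). Fix, Hoechst, anti-MAP2/anti-synaptophysin immunostain; HCI neuron count vs DMSO baseline.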

For O=C(Cl)Oc1ccccc1, the outcome [1] was “inactive”, the outcome [2] was “inactive” and the outcome [3] was “inactive”. The outcome [4] was “inactive”, the outcome [5] was “inactive” and the outcome [6] was “inactive”. The outcome [7] was “inactive”, the outcome [8] was “inactive” and the outcome [9] was “inactive”. The outcome [10] was “inactive”, the outcome [11] was “inactive” and the outcome [12] was “inactive”. The outcome [13] was “inactive” and the outcome [14] was “inactive”.

With O=[N+]([O-])c1ccc([N+](=O)[O-])cc1 the AC50 [1] was active: 8.39 µM, the AC50 [2] was active: 20 µM and the AC50 [3] was active: 11.8 µM. For the same molecule, the AC50 [5] was active: 26.3 µM, the outcome [6] was “inactive” and the outcome [7] was “inactive”. For the same molecule, the outcome [8] was “inactive”, the AC50 [9] was active: 30.8 µM and the outcome [10] was “inactive”. For the same molecule, the outcome [12] was “inactive”, the outcome [13] was “inactive” and the outcome [14] was “inactive”.

With CC(C)OP(=O)(OC(C)C)SCCNS(=O)(=O)c1ccccc1 the outcome [15] was “inactive”, the outcome [16] was “inactive” and the outcome [17] was “inactive”. The outcome [18] was “inactive” and the outcome [19] was “inactive”.

For CC(C)OP(=S)(OC(C)C)SCCNS(=O)(=O)c1ccccc1, the AC50 [15] was active: 130 µM, the AC50 [16] was active: 71.1 µM and the outcome [16] was “inactive”. For the same molecule, the AC50 [17] was active: 87.1 µM and active: 69.7 µM, the AC50 [19] was active: 65.7 µM and active: 41.5 µM and the AC50 [20] was active: 50 µM and active: 89.7 µM.
